Values quoted from earlier work in patent publication US9278956B1, “Small-molecule inhibitors of Rac1 in metastatic cancer cells” (University of Puerto Rico, priority 2012, dated 2016).

Test system: Rac
Conditions: cited from earlier work

CCN(CC)CCCC(C)Nc1nc(C)cc(Nc2ccc3nc(C)cc(N)c3c2)n1 (stereo not shown) [NSC23766]
effective concentration as Rac inhibitor: 50 to 100 µM
